The results in this text go back to patent US7816408B2, “Calcium receptor active compounds” (NPS Pharmaceuticals, Inc., priority 2002, dated 2010).

Chains of the proteins cited; added tags and fusions are not shown. Residues count along the entry.
UniProt P41180, 20-1078 limits assumed: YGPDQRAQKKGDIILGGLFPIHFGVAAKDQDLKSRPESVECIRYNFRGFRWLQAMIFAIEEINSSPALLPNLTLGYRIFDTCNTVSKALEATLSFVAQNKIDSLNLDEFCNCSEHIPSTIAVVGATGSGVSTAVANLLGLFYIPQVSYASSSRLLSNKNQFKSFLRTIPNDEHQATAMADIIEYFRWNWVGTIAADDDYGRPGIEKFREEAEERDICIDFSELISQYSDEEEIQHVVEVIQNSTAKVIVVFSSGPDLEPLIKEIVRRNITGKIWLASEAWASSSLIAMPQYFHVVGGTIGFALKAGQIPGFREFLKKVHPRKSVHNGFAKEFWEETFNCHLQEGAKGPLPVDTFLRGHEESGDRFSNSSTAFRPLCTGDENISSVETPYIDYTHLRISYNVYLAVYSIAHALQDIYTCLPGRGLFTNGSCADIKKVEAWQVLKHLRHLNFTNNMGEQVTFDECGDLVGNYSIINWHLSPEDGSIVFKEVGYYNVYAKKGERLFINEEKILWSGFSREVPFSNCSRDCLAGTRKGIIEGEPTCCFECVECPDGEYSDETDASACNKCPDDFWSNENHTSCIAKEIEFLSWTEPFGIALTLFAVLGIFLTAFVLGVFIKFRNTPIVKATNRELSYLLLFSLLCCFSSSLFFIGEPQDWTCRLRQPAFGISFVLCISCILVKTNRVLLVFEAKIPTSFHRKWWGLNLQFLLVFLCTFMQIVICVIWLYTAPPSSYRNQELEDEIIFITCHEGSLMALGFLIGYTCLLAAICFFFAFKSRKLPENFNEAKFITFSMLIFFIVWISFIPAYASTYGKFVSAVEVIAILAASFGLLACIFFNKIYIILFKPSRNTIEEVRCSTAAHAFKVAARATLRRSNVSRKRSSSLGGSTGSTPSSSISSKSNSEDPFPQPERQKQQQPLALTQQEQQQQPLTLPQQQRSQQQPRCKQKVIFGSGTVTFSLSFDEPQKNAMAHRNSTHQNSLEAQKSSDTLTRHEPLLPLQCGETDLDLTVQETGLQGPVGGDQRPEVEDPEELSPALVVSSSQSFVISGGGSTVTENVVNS

For the assay, the target named is human calcium receptor (Homo sapiens, UniProt P41180). The assay is described as follows: Activity on calcium receptors: fluo-3 fluorescence in HEK293 cells transfected with human calcium receptor gene. Conditions: HEK293 cells transfected with plasmid pHuPCaR4.0 (human calcium receptor gene), loaded with fluo-3; 1 mM CaCl2, 1 mM MgCl2. On the procedure: The activities of the compounds of the present invention on calcium receptors were measured. The measurement was performed in accordance with the method described in Example 4 of Nemeth et al., PCT/US95/13704 (International Publication No. WO96/12697). In brief, HEK293 cells were transfected with a plasmid pHuPCaR4.0 containing a human calcium receptor gene and loaded with fluo-3. The loading was carried out by incubating the cells at 37° C. for 1 hour in Dulbecco's modified Eagle's medium which contained about 5 μM of fluo-3/AM and had been buffered with 20 mM HEPES. Next, the cells were rinsed with Hank's balanced salt solution which contained 1 mM CaCl2 and 1 mM MgCl2 and had been buffered with 20 mM HEPES. Then each test compound was added to the cells and the fluorescence was measured with the use of an excitation wavelength of 485 nm and an emission wavelength of 540 nm.
Consider `C[C@@H](NCCCOC1c2ccccc2-c2ccccc21)c1cccc2ccccc12`, for which the EC50 (in general, the concentration giving half of the maximal effect) is 64 nM.

For `C[C@@H](NCCC(=O)N1Cc2ccccc2SCC1c1ccccc1)c1cccc2ccccc12` (stereo partly drawn), the EC50 was 100 nM.

On to `COc1cccc([C@@H](C)NCCCOc2ccc3[nH]cc(C)c3c2)c1`, for which the EC50 worked out at 480 nM. On to `C[C@@H](NCCCOc1ccc2oc3ccccc3c2c1)c1cccc2ccccc12`, for which the EC50 is 270 nM.

As for `Cc1c[nH]c2ccc(OCCCN[C@H](C)c3cccc4ccccc34)cc12`, the EC50 was found to be 1600 nM.

For `COc1cccc([C@@H](C)NCCCOc2ccc3c(c2)oc2ccccc23)c1`, the EC50 was determined as 270 nM.

Take `COc1cccc([C@@H](C)NCCCCSc2nc3ccccc3o2)c1`: the EC50 is 140 nM. Turning to `COc1cccc([C@@H](C)NCCCCSc2ccccc2Cl)c1`, the EC50 was 310 nM. As to `COc1cccc([C@@H](C)NCCCCCSc2nc3ccccc3o2)c1`, the EC50 stood at 150 nM. For `C[C@@H](NCC[S+]([O-])c1cc(Cl)ccc1Cl)c1cccc2ccccc12` (stereo partly drawn), the EC50 worked out at 910 nM. The value for `COc1cccc([C@@H](C)NCCCCCCSc2nc3ccccc3o2)c1` was 930 nM; that for `CCn1c2ccccc2c2cc(NCCCN[C@H](C)c3cccc4ccccc34)ccc21` was 200 nM.
